# Results published in ChEMBL document CHEMBL1212811, “Chemical phylogenetics of histone deacetylases” (Nat Chem Biol, 2010).
# Protein sequences, listed by entry. Tags and fused reporters are not part of them. Lines headed by an entry give the natural chain unless they say otherwise; changes in a name come on top.
# UniProt Q9UKV0: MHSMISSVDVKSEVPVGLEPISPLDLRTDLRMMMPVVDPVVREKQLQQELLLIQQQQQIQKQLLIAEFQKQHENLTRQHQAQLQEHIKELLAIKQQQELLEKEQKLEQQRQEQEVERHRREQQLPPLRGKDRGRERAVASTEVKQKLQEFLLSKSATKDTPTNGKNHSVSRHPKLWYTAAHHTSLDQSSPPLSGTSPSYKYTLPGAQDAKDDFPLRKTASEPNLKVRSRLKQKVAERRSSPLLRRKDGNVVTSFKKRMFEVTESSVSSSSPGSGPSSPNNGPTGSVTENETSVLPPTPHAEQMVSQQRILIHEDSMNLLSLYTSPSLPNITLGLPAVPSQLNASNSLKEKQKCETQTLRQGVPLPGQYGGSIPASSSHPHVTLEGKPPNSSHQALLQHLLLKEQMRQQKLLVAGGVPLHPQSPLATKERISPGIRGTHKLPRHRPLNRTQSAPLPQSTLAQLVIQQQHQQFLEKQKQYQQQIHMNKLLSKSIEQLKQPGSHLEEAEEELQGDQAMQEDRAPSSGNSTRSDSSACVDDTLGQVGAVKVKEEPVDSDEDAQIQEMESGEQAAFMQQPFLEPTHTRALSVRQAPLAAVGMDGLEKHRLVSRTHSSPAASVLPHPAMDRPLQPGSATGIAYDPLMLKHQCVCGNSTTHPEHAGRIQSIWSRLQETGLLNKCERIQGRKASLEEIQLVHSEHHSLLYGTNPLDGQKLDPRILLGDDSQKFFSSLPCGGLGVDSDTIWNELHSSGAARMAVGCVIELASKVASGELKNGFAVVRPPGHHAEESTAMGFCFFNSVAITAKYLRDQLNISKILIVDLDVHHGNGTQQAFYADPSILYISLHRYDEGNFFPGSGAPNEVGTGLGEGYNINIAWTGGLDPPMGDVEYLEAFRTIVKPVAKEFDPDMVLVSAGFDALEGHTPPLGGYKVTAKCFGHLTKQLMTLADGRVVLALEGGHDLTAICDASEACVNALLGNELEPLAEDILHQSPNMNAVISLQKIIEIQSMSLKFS
# Biological target: Histone deacetylase 9 (Homo sapiens, UniProt Q9UKV0)
structure (smiles),measurement,value
CC(/C=C/C(=O)NO)=C\[C@@H](C)C(=O)c1ccc(N(C)C)cc1 [TRICHOSTATIN],Ki,800 nM
